Test results published in patent US8097654B2, “Radiolabeled 3-[3-(benzoyl-amido)benzyloxy]aspartic acid derivative and method of producing the same” (Suntory Holdings Limited, priority 2004, dated 2012).

Target: T1, human EAAT3 (Homo sapiens, UniProt P43005)
T1 construct: expressed in transfected cells
T1 sequence (P43005 1-524): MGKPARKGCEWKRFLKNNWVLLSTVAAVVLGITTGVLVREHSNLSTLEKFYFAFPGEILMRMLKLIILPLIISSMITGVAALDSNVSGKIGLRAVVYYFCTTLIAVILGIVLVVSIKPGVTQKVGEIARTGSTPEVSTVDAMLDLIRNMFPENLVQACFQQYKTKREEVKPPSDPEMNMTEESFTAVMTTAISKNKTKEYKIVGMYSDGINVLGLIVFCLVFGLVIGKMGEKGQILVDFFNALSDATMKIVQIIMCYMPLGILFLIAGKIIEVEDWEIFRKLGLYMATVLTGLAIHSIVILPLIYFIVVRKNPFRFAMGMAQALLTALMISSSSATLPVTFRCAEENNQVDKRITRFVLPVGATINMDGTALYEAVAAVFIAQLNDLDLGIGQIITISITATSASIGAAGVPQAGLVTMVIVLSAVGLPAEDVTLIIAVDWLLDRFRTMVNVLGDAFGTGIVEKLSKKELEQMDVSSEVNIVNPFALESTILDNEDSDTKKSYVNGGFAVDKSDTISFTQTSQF
Assay: Inhibition of [14C]-glutamic acid uptake by EAAT3 expressed in MDCK or COS-1 cells
Assay type: cell-based
Experimental: In accordance with a known method (Shimamoto, K. et al., Mol. Pharmacol. 53, 195-201, 1998; Bioorg. Med. Chem. Lett. 10, 2407-2410, 2000), the inhibitory activity was assayed as the ability to inhibit the uptake of [^14C]-glutamic acid by human EAAT2 and EAAT3 stably expressed in MDCK (Madin-Darby canine kidney) cells or transiently expressed in COS-1 cells. The glutamate uptake activity was assayed by incubating a mixture of 1 μM of L-[^14C]-glutamic acid with a sample compound at a predetermined concentration for 12 minutes, lysing the cells and then measuring the radioactivity incorporated into the cells with a liquid scintillator. The amount of uptake was expressed in percentage by referring the amount of uptake in the absence of a test compound (i.e., the buffer alone) as 100% and referring the amount of uptake in a sodium-free solution as 0%.

CCc1ccc(C(=O)Nc2cccc(CO[C@H](C(=O)O)[C@H](N)C(=O)O)c2)cc1 [Et-BzA-TBOA, (2S,3S)-3-[3-(4-ethylbenzoylamino)benzyloxy]aspartate]
IC50 (1 μM L-[14C]-glutamic acid, 12 minutes): 88 ± 4.8 nM | Inhibition of EAAT3, potency compared with I-BzA-TBOA (in words): almost the same potency as I-BzA-TBOA
